## Apparent affinities of Ab-91 variants for a coronavirus HR2 peptide

From the AlphaSeq antibody data of Engelhart et al. 2022 (doi:10.1038/s41597-022-01779-4), copy in the FLAb collection.

All variants were tested on one target, the spike HR2 peptide PDVDLGDISGINAS (SARS-CoV-2).

Parent scFv Ab-91: VL joined to VH by a (GGGGS)3 linker. Changes lie in the heavy chain CDRs alone.
VL: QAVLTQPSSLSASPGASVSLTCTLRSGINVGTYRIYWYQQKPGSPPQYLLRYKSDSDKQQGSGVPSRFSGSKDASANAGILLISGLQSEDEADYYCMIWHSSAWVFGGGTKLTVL
VH: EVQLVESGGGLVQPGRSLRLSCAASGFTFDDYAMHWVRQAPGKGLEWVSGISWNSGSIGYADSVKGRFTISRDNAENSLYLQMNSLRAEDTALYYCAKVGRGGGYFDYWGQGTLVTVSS

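The parent was found by panning a naive human phage display library on the peptide. In library AAYL51, one, two or three CDR residues were substituted; doubles and triples were drawn at random. Affinity was read by AlphaSeq, a pooled yeast mating assay with surface-displayed partners. Mating (16 h, 30 °C) was followed by selection of diploids and sequencing of their barcodes. Read counts were normalised to the haploid input and turned into Kd by a linear fit to BCL2-family pairs of known affinity, for each replicate. Mating was done three times.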

Variants are written as CDR1, CDR2 and CDR3 of the heavy chain (limits as in the source). Parent: GFTFDDYAMH, GISWNSGSIGYADSVK, VGRGGGYFDY.
Values are log10 of the apparent Kd in nM; lower means stronger binding.
An entry "n.d." has no value in the source: the pair was not observed among the diploids in that replicate. This suggests poor binding but is not conclusive.

| CDR-H1 | CDR-H2 | CDR-H3 | replicates, log10 nM | control signals |
|---|---|---|---|---|
| GKTFDDYAMH | GISWNSGSIGYCDSVK | VGRGGMYFDY | n.d. n.d. n.d. | 1 of 9 (4.20) |
| GFTFDDFAML | GISWGSGSIGYADSVK | VGRGGGYFDY | n.d. n.d. 4.48 | 3 of 9 (4.11) |
| GFTFDDYAMH | GISWNSGSIGYADSVC | VGRGGGYFKY | n.d. n.d. n.d. | 0 of 9 |
| GFTFDDYAMH | GIQWNSGSIGYADSVK | VGRMGGYFDK | n.d. n.d. n.d. | 2 of 9 (4.12) |
| GFTFDDYAMH | GISWNSGSYGYADSVK | VGRGGYYFDY | 3.81 n.d. n.d. | 3 of 9 (4.05) |
| GFTFDDYAMH | GISWQSASIGYADSVK | VGRMGGYFDY | 0.78 0.76 -0.22 | 5 of 9 (4.24) |
| GFTFDDYAMH | GIPWNSGSIGYADSVK | VGRGGGFFDY | n.d. n.d. n.d. | 4 of 9 (4.23) |
| LFTFDDYAMH | GQSKNSGSIGYADSVK | VGRGGGYFDY | n.d. n.d. n.d. | 1 of 9 (3.89) |
| GGTFDDYAMH | GILWNSDSIGYADSVK | VGRGGGYFDY | n.d. n.d. n.d. | 6 of 9 (5.16) |
| GFTFDDYAMH | GIQWNSGSIGYADSVK | VGRRGKYFDY | n.d. n.d. n.d. | 2 of 9 (3.92) |
| GFTFVDYDMH | GISWNSGSIGYADSVK | VGRIGGYFDY | 3.50 n.d. n.d. | 0 of 9 |
| GFQFDMYAMH | GISWNSGSIGYADSVK | VGRGGHYFDY | 4.77 5.18 4.86 | 5 of 9 (5.04) |
| GFTFDDYAMH | GIGWNSGSIGYRSSVK | VGRGGGYFDY | n.d. 5.24 n.d. | 0 of 9 |
| GFTFDDYAMH | GIGWLLGSIGYADSVK | VGRGGGYFDY | n.d. n.d. n.d. | 1 of 9 (4.75) |
| GFTMHDYAMH | GISWNSGSIGYADSNK | VGRGGGYFDY | 3.19 3.01 5.19 | 0 of 9 |
| GFTFDDYAMH | GISWNLGSIGYADSVK | VNRGGGYFRY | n.d. n.d. n.d. | 0 of 9 |
| GFTFDDYAMP | GISWNIGSIGYADSEK | VGRGGGYFDY | n.d. n.d. n.d. | 1 of 9 (3.12) |
| GFTFDDYAMH | GISWNKGSIGYADSVK | VGRGGGYFDY | 2.94 3.19 3.31 | 1 of 9 (6.14) |
| GFTFDDYEMH | GISWNSGSIGYADSVK | VGRGGGYFDY | n.d. n.d. n.d. | 3 of 9 (3.84) |
| GFTFDDYAMH | GISWNSGSIGYADSVK | VGRGGSYFDY | n.d. n.d. n.d. | 5 of 9 (4.46) |
| GSTFDDYAMH | GISWNSGSIGYADSVT | WGRGGGYFDY | n.d. n.d. n.d. | 0 of 9 |
| GFTFDDYAMH | GIQWNSGSDGYADSVK | PGRGGGYFDY | n.d. n.d. n.d. | 0 of 9 |
| GFTFQDYAMH | GISWNSGSIGYADSVK | VCRGGGYSDY | 0.83 0.66 0.15 | 3 of 9 (5.04) |
| GFTFDDYAMH | GISWNSGSIGTADSVK | PQRGGGYFDY | 4.02 n.d. 4.35 | 0 of 9 |
| GFTFMDYAMH | GISWNSRSIGYASSVK | VGRGGGYFDY | 3.01 3.36 4.78 | 3 of 9 (4.79) |
| GFTFDDYAMH | GISWNSGDIGYADDVK | VGRIGGYFDY | n.d. 4.58 n.d. | 0 of 9 |
| HFTFDDYAMH | GISWNSGSIRNADSVK | VGRGGGYFDY | n.d. n.d. n.d. | 0 of 9 |
| CFTFDDYAMH | GISSNSGIIGYADSVK | VGRGGGYFDY | 2.03 n.d. n.d. | 0 of 9 |
| GWTFDDYAMD | GISWNSGSIGYADSVK | VGRGGGYFMY | 4.54 n.d. n.d. | 0 of 9 |
| GFTFDDYAMH | GISWNSGSPGYADSVK | VGRGGVYFPY | 4.76 n.d. 5.46 | 5 of 9 (4.89) |
| GFTMDDYAMH | GISWNSGSIGYADSEK | SGRGGGYFDY | n.d. n.d. n.d. | 0 of 9 |
| GFTFDRYAMH | GISWNSGSIGYADSVK | VGNGGLYFDY | n.d. 3.75 n.d. | 1 of 9 (3.48) |
| GFTFDDYAMH | GIGWQSGSIGYADSVK | VGRGEGYFDY | n.d. 4.29 n.d. | 1 of 9 (4.27) |
| GFTFDDYAMH | GISWNSGSIGAADSVK | VGRGGGVFDY | 2.26 2.12 2.32 | 0 of 9 |
| GFTFDDYAML | GYSWNSGSIGYADSVK | VGRPGGYFDY | n.d. 6.14 n.d. | 2 of 9 (3.96) |
| GFTFDDYAMH | GISWNSGSITYADSVK | VGLGGGDFDY | 5.38 n.d. n.d. | 3 of 9 (4.24) |
| GFTFDDYAMH | GISWNSGSIGYADDVK | VGRGGGYFDY | 4.28 7.01 5.10 | 7 of 9 (5.14) |
| GFTFDDYAMH | GISWNKGNIGYADSVK | VHRGGGYFDY | n.d. n.d. 3.91 | 2 of 9 (4.43) |
| GWTFDDYAMH | GISWNSGSIGYADSVK | VGRGEGYFDY | n.d. n.d. n.d. | 1 of 9 (3.96) |
| GFTFDMYAMH | GISWNSGSIGYATSVK | VGRGQGYFDY | n.d. n.d. n.d. | 0 of 9 |
| GFTFCDYAMH | GISWNSGSIAYADSVK | VGRGGGYFDY | 5.30 n.d. n.d. | 3 of 9 (4.49) |
| GFTFDDYAMH | GPSWNSGSIGYADEVK | VGRGGGYFMY | n.d. n.d. n.d. | 0 of 9 |
| RFTFDDYAMH | GISWNSGSIGYADSVK | LGRGGGYFDE | 4.74 n.d. 4.37 | 5 of 9 (4.86) |
| GFTFDDYAMM | GISWNSGSIGYADSVE | VKRGGGYFDY | 4.32 5.36 n.d. | 0 of 9 |
| GFTFDDYAMH | GISWNSGSIGYADSAK | VGRMGGYFVY | n.d. n.d. n.d. | 1 of 9 (3.27) |
| GITFDDYAMH | GISWNSGSIGIADSVK | VGRGGGYFDY | n.d. n.d. n.d. | 0 of 9 |

Extract of 3 entries:

CDR-H1	CDR-H2	CDR-H3	replicates, log10 nM	control signals
GFTFDDYAMM	GISWNSGSIGYADSVE	VKRGGGYFDY	4.32 5.36 n.d.	0 of 9
GFTFDDYAMH	GISWNSGSPGYADSVK	VGRGGVYFPY	4.76 n.d. 5.46	5 of 9 (4.89)
GSTFDDYAMH	GISWNSGSIGYADSVT	WGRGGGYFDY	n.d. n.d. n.d.	0 of 9

Three control strains display no target. For library AAYL51, 21% of the pairings with them gave a signal, with a median of 4.54 and one signal in twenty below 3.26, so weak values seen in few replicates may be background. The control count says in how many pairings with the empty strains this scFv gave a signal, with their mean in brackets.